# Apparent affinities of Ab-14 variants for a coronavirus HR2 peptide

Source: Li et al. 2023 (doi:10.1038/s41467-023-39022-2), MIT Lincoln Laboratory and A-Alpha Bio; data file from the FLAb repository.

Binding partner: SARS-CoV-2 spike HR2 peptide, sequence PDVDLGDISGINAS.

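Phage display of a naive human antibody library on the peptide gave the parent. These sequences belong to a second round, designed from the earlier measurements on random variants of the parent. Group labels follow the data file (Ctrl: baseline library sampled from a position-specific scoring matrix, with some repeated check sequences; En: ensemble of fine-tuned language models; GP: Gaussian process model; GPLM: also part of the Gaussian process libraries; HC: hill climbing; Gen: genetic algorithm; Gibbs: Gibbs sampling; a sequence that several methods proposed may carry one label only). AlphaSeq pools MATa yeast showing the antibodies with MATalpha yeast showing the peptide. After mating in shaken culture at 30 °C for 16 h, diploids were selected and their barcode pairs sequenced. The ratio of observed to expected reads was calibrated, replicate by replicate, on BCL2-family standards whose Kd was known from biolayer interferometry. Mating was done six times.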

Parent scFv Ab-14: VH joined to VL by the linker GGGGSGGGGSGGGGS. Changes lie in the heavy chain CDRs alone.
VH: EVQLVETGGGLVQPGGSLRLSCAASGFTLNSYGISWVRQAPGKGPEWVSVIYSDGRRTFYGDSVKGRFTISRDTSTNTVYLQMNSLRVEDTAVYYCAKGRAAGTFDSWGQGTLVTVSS
VL: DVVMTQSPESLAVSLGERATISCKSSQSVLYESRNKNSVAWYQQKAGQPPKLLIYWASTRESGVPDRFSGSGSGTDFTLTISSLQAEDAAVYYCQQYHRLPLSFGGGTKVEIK

Each variant is given by its three heavy chain CDRs, as the data file delimits them; those of the parent are GFTLNSYGIS, VIYSDGRRTFYGDSVK, GRAAGTFDS.
Affinities are written as log10 Kd with Kd in nM; a lower number is a better binder.
Averages over replicates are reported, and they cover detected replicates only.
An entry "nd" has no value in the source: the pair was not observed among the diploids in any replicate. This suggests poor binding but is not conclusive.
The list is sorted by this average, lowest first, undetected variants last.
Of ten entries with the parent sequence, four were seen in most replicates (averages 0.34 to 2.37), three in one and three in none, so single entries are noisy.
In the paper, a design with two or fewer of six values counts as a poor binder.
A sequence measured in both rounds can read differently, since the two assays cover different ranges.
A sequence that the file lists under several names has all its replicates pooled.
As a blank, each scFv also met three strains without target: over all heavy chain designs, 1% of these pairings were detected, typically at 2.08 and seldom below 0.84.

The variant GFDLEEYGIS, VIYADGRRTFYSDSVK, GEVAGTFDV [En_HC] gave -0.68 (6 of 6 replicates).
The variant GFDLNEYGIS, VIYADGVRTAYSDNVK, GNVAGTFDL [En_Gen] gave -0.56 (6 of 6 replicates).
The variant GFDLNEYGIS, VIYADGMRTAYSDKVK, GEVAGTFDV [En_Gen] gave -0.51 (6 of 6 replicates).
The variant GFDLNEYGIS, VIYADGMRKAYADSVK, GENAGTFDQ [En_Gen] gave -0.44 (6 of 6 replicates).
The variant GFDLNEYGIS, VIYADGLRTAYSDSVK, GEVAGTFDV [En_Gen] gave -0.41 (6 of 6 replicates).
The variant GFDLNEYGIS, VIYADGSRTAYSDSVK, GNQAGTFDV [En_Gen] gave -0.31 (6 of 6 replicates).
The variant GFDLEEYGIS, VIYADGSRTAYADSVK, GNVAGTFDV [En_Gen] gave -0.31 (6 of 6 replicates).
The variant GFDLDEYGIS, VIYADGRRTFYIDSVK, GSNAGTFDM [En_HC] gave -0.21 (6 of 6 replicates).
The variant GFTLNSYGIS, VIYSDGRRTFYDDSVK, GNLAGTFDS [GPLM_HC] gave 0.01 (6 of 6 replicates).
The variant GFDLEDYGIS, VIYADGRRTFYADSVK, GNVAGTFIM [En_HC] gave 0.22 (6 of 6 replicates).
The variant GFSLNNYGIS, VIYSDGRRTFYHDSVK, GRVAGTFDS [GP_Gibbs] gave 0.26 (6 of 6 replicates).
The variant GFELNNYGIS, VIYSDGRRTFYDDSVK, GQLAGTFDS [GP_HC] gave 0.31 (6 of 6 replicates).
The variant GFSLNSYGIS, VIYSDGRRTFYGDSVK, GINAGTFDT [GP_Gibbs] gave 0.32 (6 of 6 replicates).
The variant GFTLNSYGIS, VIYSDGRRTFYSDSVK, GYAAGTFDS [GPLM_HC] gave 0.41 (6 of 6 replicates).
The variant GFGLNSYGIS, VIYSDGRRTFYGDQVK, GQTAGTFDS [GP_Gen] gave 0.68 (6 of 6 replicates).
The variant GFDLNEYGIS, VIYADGMRTQYIDSVK, GEVAGTFDL [En_HC] gave 0.70 (5 of 6 replicates).
The variant GFTLNEYGIS, VIYSDGRRTFYGDSVK, GRAAGTFDE [Ctrl+GP_HC] gave 0.71 (10 of 12 replicates).
The variant SFSLNSYGIS, VIYSDGRRTFYADSVK, GSAAGTFDS [GPLM_Gen] gave 0.78 (4 of 6 replicates).
The variant GFNLNSYGIS, VIYSDGRRTFYVDSVK, GSTAGTFDS [GP_Gibbs] gave 0.83 (5 of 6 replicates).
The variant GFHLNDYGIS, VIYSDGRRTMYIDSVK, GRAAGTFDS [GP_HC] gave 0.87 (6 of 6 replicates).
The variant GFTLRDYGIS, VIYSDGRRTFYGDSVK, GRAAGTFDS [Ctrl] gave 0.89 (4 of 6 replicates).
The variant GFKLNSYGIS, VIYSDGRRTFYGDSVK, GREAGTFDT [GPLM_Gen] gave 0.94 (6 of 6 replicates).
The variant GFHLNDYGIS, VIYSDGRRTFYIDSVK, GRSAGTFDS [GP_HC] gave 1.24 (6 of 6 replicates).
The variant GFDLNSYGIS, VIYSDGRRTFYGDSVK, GRTAGAFCS [GP_HC] gave 1.35 (5 of 6 replicates).
The variant GFHLDEFGIS, VIYADGLRYHYANSVK, GEMAGTFTT [En_Gibbs] gave 1.82 (6 of 6 replicates).
The variant GYDLNEYGIS, VIYADGRRVAYIDDVK, GHVSDHFAV [En_Gibbs] gave nd (0 of 6 replicates).
The variant GFTRNSYGIS, VIYSDGRRTFYGDSVK, GRAAGTFTS [Ctrl] gave nd (0 of 6 replicates).
The variant GFNLEEYGIS, VIYADGMRTKYSDNVK, GHIGNVRVV [En_Gibbs] gave nd (0 of 6 replicates).
The variant GFDLNEYGIS, VIYADGVRSFYADNAK, GNVGIFAEV [En_Gibbs] gave nd (0 of 6 replicates).
The variant GRNLDEYGIS, VIYADGQRTSYIDNVK, DGDAVDFDM [En_Gibbs] gave nd (0 of 6 replicates).
The variant GFKLDEYGIS, VIYADGQRKHYADSVK, GQINVYYTA [En_Gibbs] gave nd (0 of 6 replicates).
The variant GFTLNSYGIS, VIYSDGRRTFYLDSVS, GRAAGDFDS [Ctrl] gave nd (0 of 6 replicates).